ChEMBL document CHEMBL1933021, “Novel and selective spiroindoline-based inhibitors of Sky kinase” (Bioorg Med Chem Lett, 2012)
pIC50: −log10 of the molar value. Active and inactive are the calls of the source. No cut-off for these calls is given here.

The chains behind the UniProt entries cited, without tags or fusion partners. Where a name states a change or a piece, a line headed by the entry shows the natural chain unless it says otherwise.
UniProt P08581: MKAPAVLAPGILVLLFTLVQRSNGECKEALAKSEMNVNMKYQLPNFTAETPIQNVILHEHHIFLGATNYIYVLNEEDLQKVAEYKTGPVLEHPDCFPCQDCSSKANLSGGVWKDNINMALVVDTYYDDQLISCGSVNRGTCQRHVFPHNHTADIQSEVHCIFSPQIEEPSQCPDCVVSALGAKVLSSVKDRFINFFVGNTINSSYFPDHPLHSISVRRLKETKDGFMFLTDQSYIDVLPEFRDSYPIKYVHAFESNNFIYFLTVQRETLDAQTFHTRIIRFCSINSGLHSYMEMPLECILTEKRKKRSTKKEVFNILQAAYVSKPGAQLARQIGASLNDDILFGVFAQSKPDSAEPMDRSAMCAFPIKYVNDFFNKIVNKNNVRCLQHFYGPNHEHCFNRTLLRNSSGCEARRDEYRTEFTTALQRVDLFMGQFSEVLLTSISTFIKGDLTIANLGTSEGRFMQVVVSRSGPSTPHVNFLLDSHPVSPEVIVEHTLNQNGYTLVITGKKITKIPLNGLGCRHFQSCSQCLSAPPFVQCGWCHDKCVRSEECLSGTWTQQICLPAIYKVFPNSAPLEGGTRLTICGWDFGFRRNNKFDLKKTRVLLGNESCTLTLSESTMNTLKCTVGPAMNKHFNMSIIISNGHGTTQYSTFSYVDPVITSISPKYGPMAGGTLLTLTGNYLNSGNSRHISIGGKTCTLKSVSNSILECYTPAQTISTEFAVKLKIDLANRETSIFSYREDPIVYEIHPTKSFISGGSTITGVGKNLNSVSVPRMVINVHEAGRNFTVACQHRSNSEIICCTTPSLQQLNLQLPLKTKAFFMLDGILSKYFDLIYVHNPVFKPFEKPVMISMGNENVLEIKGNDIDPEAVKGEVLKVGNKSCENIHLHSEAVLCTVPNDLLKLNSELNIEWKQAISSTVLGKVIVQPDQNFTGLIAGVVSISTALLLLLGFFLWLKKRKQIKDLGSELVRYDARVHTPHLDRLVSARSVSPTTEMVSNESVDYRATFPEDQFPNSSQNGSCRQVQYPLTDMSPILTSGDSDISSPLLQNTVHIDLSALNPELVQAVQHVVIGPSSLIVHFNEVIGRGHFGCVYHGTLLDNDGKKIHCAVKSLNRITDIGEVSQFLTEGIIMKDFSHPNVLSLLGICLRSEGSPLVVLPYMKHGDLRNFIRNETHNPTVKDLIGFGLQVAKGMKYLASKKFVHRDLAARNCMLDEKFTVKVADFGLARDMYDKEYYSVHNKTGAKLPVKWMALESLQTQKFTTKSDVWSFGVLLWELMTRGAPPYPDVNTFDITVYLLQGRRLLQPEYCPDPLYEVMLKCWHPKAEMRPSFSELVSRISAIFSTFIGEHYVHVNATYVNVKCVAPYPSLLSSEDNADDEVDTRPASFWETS

Legend:
[1] = system: Tyro3 (Mus musculus); assay: Inhibition of mouse Sky kinase assessed as inhibition of src substrate phosphorylation by ELISA
[2] = target: Hepatocyte growth factor receptor (Homo sapiens, UniProt P08581); assay: Inhibition of HGFR

Row | SMILES | inhibition [1] | pIC50 [2]
1 | N#Cc1ccc2cc(C(=O)N3C[C@@]4(CCN(C5CCNC5)C4)c4ccccc43)[nH]c2c1 (stereo partly drawn) | Active | 
2 | O=C(c1cc2ccc(F)cc2[nH]1)N1C[C@]2(CCN(C3CCNC3)C2)c2ccccc21 (stereo partly drawn) |  | < 4.52
3 | CN1CCC(N2CC[C@@]3(CN(C(=O)c4cc5cc(F)ccc5[nH]4)c4ccccc43)C2)CC1 | Active | 
